Results reported in patent US10870658B2, “Aldose reductase inhibitors and methods of use thereof” (The Trustees of Columbia University in the City of New York, priority 2016, dated 2020).

Molecular target: Aldose Reductase (Homo sapiens, UniProt P15121)
Experiment: Aldose reductase enzymatic inhibition (micro plate assay, D-glyceraldehyde and NADPH, absorbance at 340 nm)
Type: biochemical
Details: D-glyceraldehyde and NADPH as substrate; 0.1 nm to 10 uM
Method: Aldose Reductase Enzymatic Inhibition:
All compounds and Zopolrestat were tested individually in a micro plate assay for AR inhibition using D-glyceraldehyde and NADPH as substrate and the absorbance changes at 340 nm was monitored. % Inhibition was calculated for ARIs at concentration ranging 0.1 nm to 10 uM.

IC50: 100 pM
Structure (SMILES): O=C(O)Cc1nn(Cc2nc3cc(C(F)(F)F)ccc3s2)c(=O)c2cscc12 [Compound XII, 2-(4-oxo-3-((5-(trifluoromethyl)benzo[d]thiazol-2-yl)methyl)-3,4-dihydrothieno[3,4-d]pyridazin-1-yl)acetic acid]
